The entries are a selection whose mix differs from that of the whole data set. Some structures show a salt or complex split into parts, the way the source records it. The source made the active and inactive calls. How the source made its calls: active means max response of -50% or lower; inconclusive means between -30% and -50%; inactive means -30% or higher.
On the % scale 0 is the no-effect control and ±100 the full control effect.

Protein sequences, listed by entry. Tags and fused reporters are not part of them.
UniProt P48426, whole entry: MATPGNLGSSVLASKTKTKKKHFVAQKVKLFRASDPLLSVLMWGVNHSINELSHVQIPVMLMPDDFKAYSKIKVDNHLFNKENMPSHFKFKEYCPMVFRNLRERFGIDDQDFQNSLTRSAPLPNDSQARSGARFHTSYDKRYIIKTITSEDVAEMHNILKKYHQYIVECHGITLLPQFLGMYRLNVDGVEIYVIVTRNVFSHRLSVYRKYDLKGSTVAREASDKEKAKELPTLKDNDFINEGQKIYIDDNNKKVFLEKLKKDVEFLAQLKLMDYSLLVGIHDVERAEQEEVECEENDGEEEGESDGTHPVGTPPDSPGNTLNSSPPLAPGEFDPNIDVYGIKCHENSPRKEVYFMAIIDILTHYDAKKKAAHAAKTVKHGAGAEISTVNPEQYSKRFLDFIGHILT

The assay deals with Phosphatidylinositol 5-phosphate 4-kinase type-2 alpha (Homo sapiens) (UniProt P48426). Kind of assay: qHTS for Inhibitors of phosphatidylinositol 5-phosphate 4-kinase (PI5P4K). Further: value at the top dose of about 77 µM. To be noted: PI5P4Kalpha enzyme, ADP-Glo luminescence, 60 min; active compounds read low. The source says: In addition to finding PI5P, we discovered the type II phosphatidylinositol 5-phosphate 4-kinase (PI5P4K) family (alpha, beta, gamma isoforms) that catalyze the conversion of PI5P to PI(4,5)P2. Alternatively, PI(4,5)P2 can also be synthesized through phosphatidylinositol-4-phosphate (PI4P) by the type I phosphatidylinositol 4-phosphate 5-kinases (PI4P5K). These PI5P4K enzymes therefore represent one way by which cells can regulate endogenous PI5P levels and play important roles in insulin signaling and in stress responses.
This proposal aims to identify and optimize specific modulators of human PI5P4K, phosphatidylinositol-5-phosphate 4-kinase (Type II PIPK), a family of kinases that regulate AKT signaling and tumor cell growth. In this project we aim to identify inhibitors of human PI5P4K using a quantitative high-throughput screening approach against the MLSMR containing ~400,000 small molecules.
NIH Chemical Genomics Center [NCGC]
NIH Molecular Libraries Probe Centers Network [MLPCN]
Assay Submitter (PI): Atsuo Sasaki, Beth Israel Deaconess Medical Center
2 microL of PI5P4Kalpha/substrate buffer (columns 1-2, 5-48) are dispensed into Greiner white solid bottom 1536-well assay plates; column 3 receives only PI5P4Kalpha buffer as 0x substrate controls; column 4 receives only substrate buffer as 0x PI5P4Kalpha controls. Final assay buffer consists of 0.038 M HEPES pH 7.4, 0.28 mM EGTA, 0.1% CHAPS, and 5% DMSO (final concentration). Compounds are then transferred via Kalypsys pin tool equipped with 1536-pin array (10 nL slotted pins, V&P Scientific, San Diego, CA). Following addition of compound, 1 microL of ATP (5 microM final concentration, all columns) is added to initiate the reaction. ATP is diluted in an assay buffer consisting of 0.02 M HEPES pH 7.4, 60 mM MgCl2, 15 microM ATP, and 0.1% CHAPS. The plates are then incubated at room temperature for 60 minutes. ADP-Glo reagent 1 is added (2 microL) and plates incubated for 45 minutes, before ADP-Glo reagent 2 (4 microL) is added and plates incubated for 30 minutes. They are then transferred to a ViewLux high-throughput CCD imager (PerkinElmer) wherein single end-point measurements of luminescence are acquired using a clear filter.
Background: qHTS replaces the single test concentration by a dilution series.
As for `COc1ccc(C(c2nnnn2C2CCCC2)N2CCC(n3c(=O)[nH]c4ccccc43)CC2)cc1` (stereo unspecified), the max response was inactive: -0.147%.
`O=[N+]([O-])c1cc([N+](=O)[O-])c(Nc2ccc(Cl)cc2)c([N+](=O)[O-])c1`: the max response is inactive: -0.565%.
For `CCCOc1ccc(C(=O)NCC2(N(C)C)CCCCC2)cc1OC`, the max response was inactive: 5.38%.
In the case of `Cc1ccc(C(=O)NCC2(N(C)C)CCCCC2)o1` it was inactive: 1.84%; in that of `O=C(OC1CN2CCC1CC2)c1ccc([N+](=O)[O-])cc1` (stereo unspecified), inactive: -2.19%.
As for `CN1CCC(Nc2cccc(F)c2)CC1`, the max response was inactive: 10.9%.
As for `O=C(NCC1(N2CCCCC2)CCCCC1)c1cncc(Br)c1`, the max response is inactive: 3.57%.
In the case of `COc1ccc2c(c1O)-c1c(O)c(OC)cc3c1[C@H](C2)[N+](C)(C)CC3.O=[N+]([O-])c1cc([N+](=O)[O-])c([O-])c([N+](=O)[O-])c1[O-]`, the max response is active: -66.3%.
With `CCN(CC)CCCNc1ccccc1[N+](=O)[O-].O=[N+]([O-])c1cc([N+](=O)[O-])c(O)c([N+](=O)[O-])c1` the figure was inactive: 1.29%; with `O=C(NCC1(N2CCOCC2)CCCCC1)c1cc(F)c(F)cc1Cl`, inactive: -0.0114%; with `CCC(c1nnnn1C(C)(C)C)N1CCC(n2c(=O)[nH]c3ccccc32)CC1` (stereo unspecified), inactive: -0.346%.
Take `COc1cc(OC)c(C(=O)NCC2(N(C)C)CCCCC2)cc1OC`: the max response is inactive: 1.39%.
Take `CCCCn1nnnc1C(c1ccnc2ccccc12)N1CCC(n2c(=O)[nH]c3ccccc32)CC1` (stereo unspecified): the max response was inactive: -0.982%.
Turning to `CC(C)c1ccc(NC2CCN(C(=O)OC(C)(C)C)CC2)cc1`, the max response was inactive: 5.06%.
On to `CCCCn1nnnc1C(c1ccccc1OC(F)(F)F)N1CCC(n2c(=O)[nH]c3ccccc32)CC1` (stereo unspecified), for which the max response was inactive: 7.16%.
`CN(C)c1cccc(C(=O)NCC2(N3CCCCC3)CCCCC2)c1`: the max response was inactive: -1.29%.
Regarding `COc1ccc(CN(CCCl)CCCl)cc1Cl`, the max response is inactive: -3.95%.
Take `O=C(NCC1(N2CCOCC2)CCCCC1)c1cc(=O)[nH]c2ccccc12`: the max response was inactive: 1.93%.
Take `COc1cc(C(=O)NCC2(N3CCCCC3)CCCCC2)ccc1OC(F)F`: the max response was inactive: -0.895%.
Take `COc1ccc(NC2CCN(C(=O)OC(C)(C)C)CC2)cc1`: the max response is inactive: 2.47%.
With `CC(C)c1ccc(C(=O)NCC2(N3CCOCC3)CCCCC2)cc1`, the max response is inactive: -15.4%.
Take `CN1CCN(CCOC(=O)C(O)(c2ccccc2)c2ccccc2)CC1`: the max response is inactive: 3.91%.
In the case of `CCCCn1nnnc1C(c1cccc2ccccc12)N1CCC(n2c(=O)[nH]c3ccccc32)CC1` (stereo unspecified), the max response is inactive: -3.28%.
In the case of `O=[N+]([O-])c1cc([N+](=O)[O-])c(NCC2CCS(=O)(=O)C2)c([N+](=O)[O-])c1` (stereo unspecified) it was inactive: 1.84%; in that of `O=C(NCC1(N2CCCCC2)CCCCC1)c1cccc(C(F)(F)F)c1`, inactive: 8.03%; in that of `O=c1[nH]c2ccccc2n1C1CCN(C(c2ccccc2OC(F)(F)F)c2nnnn2C2CCCC2)CC1` (stereo unspecified), inactive: 4.39%.
With `N#CC1(Nc2ccccc2)CCN(CCc2ccccc2)CC1` the figure was inactive: -3.23%; with `CCN1CCC(Nc2ccc(Cl)cc2)CC1`, inactive: -3.98%; with `CSc1ccc(C(=O)NCC2(N3CCOCC3)CCCCC2)cc1`, inactive: 1.21%.
Turning to `O=C(NCC1(N2CCCCC2)CCCCC1)c1cccc([N+](=O)[O-])c1`, the max response was inactive: 0.341%.
With `O=C(NCC1(N2CCCCC2)CCCCC1)c1ccc(OC(F)F)cc1` the figure was inactive: -8.08%; with `CC(C)(C)n1nnnc1C(c1ccccc1OC(F)(F)F)N1CCC(n2c(=O)[nH]c3ccccc32)CC1` (stereo unspecified), inactive: 1.29%.
In the case of `CCOC(=O)N1CCC(Nc2cccc(C)c2)CC1` it was inactive: 1.35%; in that of `COc1cc(C(=O)NCC2(N(C)C)CCCCC2)ccc1OC(F)F`, inactive: 0.938%; in that of `O=c1[nH]c2ccccc2n1C1CCN(C(c2cccc3ccccc23)c2nnnn2C2CCCC2)CC1` (stereo unspecified), inactive: -1.33%.
With `O=c1[nH]c2ccccc2n1C1CCN(C(c2ccccc2)c2nnnn2C2CCCCC2)CC1` (stereo unspecified) the figure was inactive: -1.35%.
As for `CCOC(=O)N1CCC(Nc2ccc(F)cc2)CC1`, the max response was inactive: 0.556%.
Regarding `CCCCOc1ccc(C(=O)NCC2(N3CCOCC3)CCCCC2)cc1`, the max response is inactive: -2.68%.
Consider `O=P1(N(CCCl)CCCl)SCCCS1`, for which the max response was inactive: -1.87%.
Regarding `CCCCn1nnnc1C(c1cc2ccccc2o1)N1CCC(n2c(=O)[nH]c3ccccc32)CC1` (stereo unspecified), the max response is inactive: 3.49%.
In the case of `O=C(NCC1(N2CCCCC2)CCCCC1)c1ccc(F)cc1`, the max response was inactive: -0.0912%.
Regarding `O=C1CCN(Cc2ccccc2)CC1`, the max response was inactive: -11.8%.
For the compound `CC(C)(C)n1nnnc1C(c1ccccc1)N1CCC(n2c(=O)[nH]c3ccccc32)CC1` (stereo unspecified), the max response is inactive: -3.9%.
`CCOc1ccc(C)cc1CN(CCCl)CCCl`: the max response is inactive: 2.47%.
As to `COc1ccc(Cl)cc1C(=O)NCC1(N2CCOCC2)CCCCC1`, the max response was inactive: 2.44%.
With `O=C1C(O)=C([N+](=O)[O-])C(=O)C(O)=C1[N+](=O)[O-]` the figure was active: -76%; with `N#CC1(Nc2ccccc2)CCN(Cc2ccccc2)CC1`, inactive: -0.245%; with `O=C(NCC1(N2CCCCC2)CCCCC1)c1ccc(Cl)s1`, inactive: -2.6%.
Turning to `O=c1[nH]c2ccccc2n1C1CCN(C(c2cc3ccccc3o2)c2nnnn2C2CCCCC2)CC1` (stereo unspecified), the max response is inactive: 3.88%.
As to `O=C(OC1CN2CCC1CC2)C1c2ccccc2Oc2ccccc21` (stereo unspecified), the max response was inactive: -5.92%.
In the case of `CCCCn1nnnc1C(c1ccc(OC)cc1)N1CCC(n2c(=O)[nH]c3ccccc32)CC1` (stereo unspecified), the max response is inactive: -0.736%.
With `CCOC(=O)N1CCC(Nc2ccc(OC)cc2)CC1` the figure was inactive: -1.97%; with `Cc1cc(C)cc(N(C(=O)c2ccccc2)C2CCN(C(=O)OC(C)(C)C)CC2)c1`, inactive: -2.55%; with `O=C(NCC1(N2CCCCC2)CCCCC1)c1ccc(Cl)nc1`, inactive: 5.59%.
Consider `O=c1[nH]c2ccccc2n1C1CCN(C(c2ccccc2OC(F)(F)F)c2nnnn2C2CCCCC2)CC1` (stereo unspecified), for which the max response is inactive: 1.58%.
With `O=C(NCC1(N2CCOCC2)CCCCC1)c1cc2ccccc2o1` the figure was inactive: -11.8%.
`Cc1cccc(NC2(C#N)CCN(Cc3ccccc3)CC2)c1`: the max response is inactive: -1.25%.
As to `CSc1ccccc1C(=O)NCC1(N2CCCCC2)CCCCC1`, the max response was inactive: -0.621%.
On to `COc1ccc(C(=O)NCC2(N3CCCCC3)CCCCC2)c(OC)c1OC`, for which the max response was inactive: 2.73%.
Take `CC(C)(C)OC(=O)N1CCC(N(C(=O)c2ccccc2)c2ccc(F)cc2)CC1`: the max response is inactive: 0.0607%.
For `CCC(c1nnnn1C1CCCC1)N1CCC(n2c(=O)[nH]c3ccccc32)CC1` (stereo unspecified), the max response is inactive: 3.51%.
With `COc1ccc(C(=O)NCC2(N3CCCCC3)CCCCC2)cc1` the figure was inactive: -3.75%.
For `CCCCn1nnnc1C(CC)N1CCC(n2c(=O)[nH]c3ccccc32)CC1` (stereo unspecified), the max response is inactive: -4.25%.
For the compound `O=C(NCC1(N2CCCCC2)CCCCC1)c1cccs1`, the max response was inactive: 0.414%.
In the case of `CCCCn1nnnc1C(c1cccs1)N1CCC(n2c(=O)[nH]c3ccccc32)CC1` (stereo unspecified), the max response was inactive: 2.51%.
With `O=C(NCC1(N2CCCCC2)CCCCC1)c1ccc(=O)[nH]c1` the figure was inactive: 4.75%.
In the case of `CN1CCC(Nc2ccc(Cl)cc2)CC1` it was inactive: -0.356%.
As to `COc1cccc(C(=O)N(c2cc(C)cc(C)c2)C2CCN(C(=O)OC(C)(C)C)CC2)c1`, the max response was inactive: -1.02%.
With `COc1cccc(C(c2nnnn2C2CCCC2)N2CCC(n3c(=O)[nH]c4ccccc43)CC2)c1OC` (stereo unspecified), the max response is inactive: 4.12%.
As to `COc1cc(OC)cc(C(=O)NCC2(N3CCOCC3)CCCCC2)c1`, the max response was inactive: 6.51%.
Regarding `CCC(CO)(C(=O)OC1CN2CCC1CC2)c1ccccc1` (stereo unspecified), the max response was inactive: 1.5%.
For `NN(c1ccccc1)C1CCN(CCc2ccccc2)CC1`, the max response is inactive: 3.61%.
As for `O=C(O)C1(Nc2ccccc2)CCN(Cc2ccccc2)CC1`, the max response was inactive: -2.31%.
Take `CC(C)(C)OC(=O)N1CCC(Nc2ccccc2)CC1`: the max response was inactive: -4.4%.
Turning to `O=c1[nH]c2ccccc2n1C1CCN(C(c2cc3ccccc3o2)c2nnnn2C2CCCC2)CC1` (stereo unspecified), the max response is inactive: -0.141%.
For the compound `CCCOc1ccc(C(=O)NCC2(N(C)C)CCCCC2)cc1`, the max response is inactive: 1.25%.
For `CN1CCC(Nc2ccc(F)c(Cl)c2)CC1`, the max response was inactive: 1.1%.
On to `CCOc1ncccc1C(=O)NCC1(N2CCOCC2)CCCCC1`, for which the max response is inactive: -9.59%.
In the case of `CN(C)c1ccc(C(=O)NCC2(N3CCCCC3)CCCCC2)cc1` it was inactive: 1.56%; in that of `Cn1c(=O)[nH]cc(N(CCCl)CCCl)c1=O`, inactive: -1.83%; in that of `O=C(NCC1(N2CCCCC2)CCCCC1)c1ccco1`, inactive: -2.45%.
With `COc1ccc(C(c2nnnn2C2CCCCC2)N2CCC(n3c(=O)[nH]c4ccccc43)CC2)cc1` (stereo unspecified) the figure was inactive: -11.9%; with `CCN1CCC(Nc2cccc(F)c2)CC1`, inactive: 1.86%.
With `CC(C)(C)n1nnnc1C(c1ccnc2ccccc12)N1CCC(n2c(=O)[nH]c3ccccc32)CC1` (stereo unspecified), the max response was inactive: -0.748%.
For the compound `Cc1ccccc1NC1(C#N)CCN(Cc2ccccc2)CC1`, the max response is inactive: -8.84%.
On to `Cc1ccc(Nc2c([N+](=O)[O-])cc([N+](=O)[O-])cc2[N+](=O)[O-])cc1`, for which the max response was inactive: -7.24%.
With `Cc1ccc(C(=O)NCC2(N3CCCCC3)CCCCC2)o1` the figure was inactive: 4.29%; with `Cc1ccc(NC2(C#N)CCN(Cc3ccccc3)CC2)cc1`, inactive: 5.7%.
For the compound `CCC(c1nnnn1C1CCCCC1)N1CCC(n2c(=O)[nH]c3ccccc32)CC1` (stereo unspecified), the max response is inactive: 3.87%.
Turning to `COc1cccc(C(c2nnnn2C2CCCCC2)N2CCC(n3c(=O)[nH]c4ccccc43)CC2)c1OC` (stereo unspecified), the max response was inactive: 3.41%.
As for `CC(=O)N(c1ccccc1)C1CCNCC1`, the max response was inactive: -1.92%.

For the origin of these results see PubChem BioAssay AID652105 (National Center for Advancing Translational Sciences (NCATS), 2013).
